Data reported in patent publication US8956445B2, “High stability diionic liquid salts” (Sigma-Aldrich Co., priority 2004, dated 2015).
Where two headings read alike, the source gives them in different places.

Tests used:
[1] = Density (2.0 mL volumetric tube, weighing by difference); type: physicochemical; settings: 23° C.
Method: The densities of the ionic liquids or, more correctly, […] (used synonymously except as indicated otherwise explicitly or by context) was determined at 23° C. by placing 2.0 mL of the ionic liquid in a 2.0 mL volumetric tube and weighing by difference. The melting points of the ionic liquids were determined using a Perkin Elmer Pyris 1 Differential Scanning calorimeter (Boston, Mass.). Typical methods involved using a 10° C./min temperature ramp to determine and identify the first and second order thermal transitions. […] For solid compounds, the melting points were verified using a capillary melting point apparatus. Refractive index measurements were conducted at 23° C. using a Bausch & Lomb Abbe-3L refractometer.

[2] = Surface tension (DuNuoy Tensiometer); type: physicochemical; settings: room temperature (23° C.)

Substance	Miscibility with Heptane	Miscibility with Water	Density [1] [g/mL]	Surface Tension [2] [dynes/cm]	Miscibility with Water (listed as 28)
1,6-di(3-melhylimidazolium)hexane di-bromide [C6(mim)2-Br]	Immiscible	Miscible			
1,12-di(3-benzylimidazolium)dodecane di-bromide [C12(benzim)2-Br]	Immiscible	Immiscible			insoluble in water
1,12-di(3-methylimidazolium)dodecane di-bromide [C12(mim)2-Br]	Immiscible	Miscible	1.27	57.9	

Now from value to substance, other results behind:

Miscibility with Heptane	Miscibility with Water	Density [1] [g/mL]	Surface Tension [2] [dynes/cm]	Substance	Miscibility with Water (listed as 28)
Immiscible	Miscible			1,9-di(butylpyrrolidinium)nonane di-bromide [C9(bpy)2-Br]	
Immiscible	Miscible			1,9-di(methylpyrrolidinium)nonane di-bromide [C9(mpy)2-Br]	
